System: MMP1 expression by SFs
Assay: 'MMP assay': MMP1 ELISA on supernatant of activated synovial fibroblasts
Type: cell-based, human
Settings: each cytokine 25 ng/mL or THP1 supernatant 2-fold diluted, 72 h after addition
Method: A 384-well format ELISA for measurement of MMP1 is developed. Various primary antibodies are tested, as well as various ELISA protocols. The following protocol is developed and validated to measure MMP1 levels in SF supernatant in 384 well plates: white Lumitrac 600 384 well plates (Greiner) are coated with 2 μg/mL anti-MMP1 antibody MAB1346 (Chemicon). The antibody is diluted in buffer 40 (1.21 g Tris base (Sigma), 0.58 g NaCl (Calbiochem) and 5 ml 10% NaN3 (Sigma) in 1 L milliQ water and adjusted to pH 8.5). After overnight incubation at 4° C., plates are washed with PBS (80 g NaCl, 2 g KCl (Sigma), 11.5 g Na2HPO4.7H2O and 2 g KH2PO4 in 10 L milliQ; pH 7.4) and blocked with 100 μL/well Casein buffer (2% Casein (VWR International) in PBS). Next day, casein buffer is removed from ELISA plates and replaced by 50 μL/well EC buffer (4 g casein, 2.13 g Na2HPO4 (Sigma), 2 g bovine albumin (Sigma), 0.69 g NaH2PO4.H2O (Sigma), 0.5 g CHAPS (Roche), 23.3 g NaCl, 4 mL 0.5 M EDTA pH 8 (Invitrogen), 5 mL 10% NaN3 in 1 L milliQ and adjusted to pH 7.0). 0.25 mM DTT (Sigma) is added to the thawed samples plates. After removal of the EC buffer, 20 μL of sample is transferred to the ELISA plates. […] Readout is performed on the Luminoscan Ascent Luminometer (Labsystems) with an integration time of 200 msec or with an Envision reader (Perkin Elmer). […]

TNF-α: recombinant cytokine used to trigger MMP1 expression by SFs
induction of the MMP1 expression by SFs: 3 fold
